Broadly, the inhibition is the relative decrease from the control value, in per cent.

Protein sequences, listed by entry. Tags and fused reporters are not part of them.
UniProt P28562, whole entry: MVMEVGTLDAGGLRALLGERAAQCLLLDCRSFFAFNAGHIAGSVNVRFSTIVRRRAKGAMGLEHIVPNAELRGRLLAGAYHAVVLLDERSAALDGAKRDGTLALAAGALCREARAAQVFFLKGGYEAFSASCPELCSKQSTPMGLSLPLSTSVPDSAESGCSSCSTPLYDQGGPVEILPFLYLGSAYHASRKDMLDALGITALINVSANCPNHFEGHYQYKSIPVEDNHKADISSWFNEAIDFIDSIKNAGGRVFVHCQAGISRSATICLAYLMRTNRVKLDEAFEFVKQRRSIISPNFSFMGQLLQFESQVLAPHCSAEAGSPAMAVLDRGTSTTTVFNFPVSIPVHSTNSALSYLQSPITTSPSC

Molecules are shown by their SMILES. Only a part is listed here, and it is no random draw. Activity calls are given as the source filed them.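 How the source made its calls: active means inhibition above about 50% (limit read from the data); inconclusive means inhibition over screen mean plus 3 SD, below that limit; inactive means the rest.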

Among the data in PubChem BioAssay AID374 (University of Pittsburgh Molecular Library Screening Center, 2006) are inhibition values, retold here.

The target of the assay is Dual specificity protein phosphatase 1 (Homo sapiens) (UniProt P28562). The assay can be described thus: blockers of human DUSP1 activity – biochemical, in vitro, primary screen (AID 374).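 Further: 0% = DMSO max control wells and 100% = wells with enzyme stopped by NaOH.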 Particulars: recombinant MKP-1, OMFP hydrolysis fluorescence; active compounds read high;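 compounds tested at a single concentration somewhere between 10 and 100 µM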.
As to `Cc1ccc(NP(C)(=O)Oc2ccccc2)c(C)c1` (stereo not drawn), the inhibition is inactive: 5.6%.
Consider `COc1ccccc1OP(C)(=O)Nc1ccc(C)cc1` (stereo not drawn), for which the inhibition was inactive: -9.78%.
To `CP(=S)(Nn1cnnc1)Oc1ccccc1` (stereo not drawn) belongs inactive: -9.58%; to `CCOP(C)(=S)SCC(=O)NC(C)C(=O)O` (stereo not drawn), inactive: 5.24%.
Consider `CP(=O)(NC(=O)Nc1ccccc1)Oc1ccccc1` (stereo not drawn), for which the inhibition is inactive: 7.26%.
In the case of `Cc1nc2ccc3ccccc3c2s1.O=[N+]([O-])c1cc([N+](=O)[O-])c(O)c([N+](=O)[O-])c1` it was inactive: -11.3%; in that of `Cc1ccc(C)c(NP(C)(=O)Oc2ccccc2)c1` (stereo not drawn), inactive: 4.58%.
As for `CP(=O)(Nc1ccccc1F)Oc1ccccc1` (stereo not drawn), the inhibition was inactive: 4.76%.
In the case of `CN(C)CCOC(=O)C(O)(c1ccccc1)C1CCCCC1` (stereo not drawn) it was inactive: -5.56%.
Take `CP(=O)(Nc1ccc2c(c1)OCCO2)Oc1ccccc1` (stereo not drawn): the inhibition is inactive: -10.9%.
In the case of `Cc1ccccc1NP(C)(=O)Nc1ccccc1C`, the inhibition was inactive: 11.1%.
Take `CCOP(C)(=S)SCC(=O)NC(C)(CC)C(=O)O` (stereo not drawn): the inhibition is inactive: -23.8%.
To `CCN(CC)CC(O)COC(=O)C(O)(c1ccccc1)C1CCCCC1` (stereo not drawn) belongs inactive: -5.61%; to `COc1ccccc1OP(C)(=O)Nc1c(C)n(C)n(-c2ccccc2)c1=O` (stereo not drawn), inactive: -21.9%; to `CP(=O)(Oc1ccccc1)N1CCOC1=O` (stereo not drawn), inactive: 1.93%.
On to `Cc1nc2ccc3ccccc3c2o1.O=[N+]([O-])c1cc([N+](=O)[O-])c(O)c([N+](=O)[O-])c1`, for which the inhibition is inactive: 26.6%.
To `COc1ccccc1OP(C)(=O)Nc1ccc(C)c(C)c1` (stereo not drawn) belongs inactive: 29.5%.
To `CP(=O)(Nc1ccccn1)Oc1ccccc1` (stereo not drawn) belongs inactive: 2.76%.
